Test system: human placental barrier
Settings: compound not detected in the fetal circuit

SMILES: Cc1cc(O)c2c(=O)c3c(O)cc(O)c4c5c(O)cc(O)c6c(=O)c7c(O)cc(C)c8c1c2c(c34)c(c78)c65 [Hypericin, hypericin]
- FM ratio: zero

Source: publication PMC10103840 (2023)
